In general, IC50 refers to the concentration that gives 50% inhibition. Read a high IC50 as weaker potency in that assay.

By UniProt entry, the sequences of proteins in these tests, tags left out. Where a name states a change or a piece, a line headed by the entry shows the natural chain unless it says otherwise.
UniProt Q96PN6: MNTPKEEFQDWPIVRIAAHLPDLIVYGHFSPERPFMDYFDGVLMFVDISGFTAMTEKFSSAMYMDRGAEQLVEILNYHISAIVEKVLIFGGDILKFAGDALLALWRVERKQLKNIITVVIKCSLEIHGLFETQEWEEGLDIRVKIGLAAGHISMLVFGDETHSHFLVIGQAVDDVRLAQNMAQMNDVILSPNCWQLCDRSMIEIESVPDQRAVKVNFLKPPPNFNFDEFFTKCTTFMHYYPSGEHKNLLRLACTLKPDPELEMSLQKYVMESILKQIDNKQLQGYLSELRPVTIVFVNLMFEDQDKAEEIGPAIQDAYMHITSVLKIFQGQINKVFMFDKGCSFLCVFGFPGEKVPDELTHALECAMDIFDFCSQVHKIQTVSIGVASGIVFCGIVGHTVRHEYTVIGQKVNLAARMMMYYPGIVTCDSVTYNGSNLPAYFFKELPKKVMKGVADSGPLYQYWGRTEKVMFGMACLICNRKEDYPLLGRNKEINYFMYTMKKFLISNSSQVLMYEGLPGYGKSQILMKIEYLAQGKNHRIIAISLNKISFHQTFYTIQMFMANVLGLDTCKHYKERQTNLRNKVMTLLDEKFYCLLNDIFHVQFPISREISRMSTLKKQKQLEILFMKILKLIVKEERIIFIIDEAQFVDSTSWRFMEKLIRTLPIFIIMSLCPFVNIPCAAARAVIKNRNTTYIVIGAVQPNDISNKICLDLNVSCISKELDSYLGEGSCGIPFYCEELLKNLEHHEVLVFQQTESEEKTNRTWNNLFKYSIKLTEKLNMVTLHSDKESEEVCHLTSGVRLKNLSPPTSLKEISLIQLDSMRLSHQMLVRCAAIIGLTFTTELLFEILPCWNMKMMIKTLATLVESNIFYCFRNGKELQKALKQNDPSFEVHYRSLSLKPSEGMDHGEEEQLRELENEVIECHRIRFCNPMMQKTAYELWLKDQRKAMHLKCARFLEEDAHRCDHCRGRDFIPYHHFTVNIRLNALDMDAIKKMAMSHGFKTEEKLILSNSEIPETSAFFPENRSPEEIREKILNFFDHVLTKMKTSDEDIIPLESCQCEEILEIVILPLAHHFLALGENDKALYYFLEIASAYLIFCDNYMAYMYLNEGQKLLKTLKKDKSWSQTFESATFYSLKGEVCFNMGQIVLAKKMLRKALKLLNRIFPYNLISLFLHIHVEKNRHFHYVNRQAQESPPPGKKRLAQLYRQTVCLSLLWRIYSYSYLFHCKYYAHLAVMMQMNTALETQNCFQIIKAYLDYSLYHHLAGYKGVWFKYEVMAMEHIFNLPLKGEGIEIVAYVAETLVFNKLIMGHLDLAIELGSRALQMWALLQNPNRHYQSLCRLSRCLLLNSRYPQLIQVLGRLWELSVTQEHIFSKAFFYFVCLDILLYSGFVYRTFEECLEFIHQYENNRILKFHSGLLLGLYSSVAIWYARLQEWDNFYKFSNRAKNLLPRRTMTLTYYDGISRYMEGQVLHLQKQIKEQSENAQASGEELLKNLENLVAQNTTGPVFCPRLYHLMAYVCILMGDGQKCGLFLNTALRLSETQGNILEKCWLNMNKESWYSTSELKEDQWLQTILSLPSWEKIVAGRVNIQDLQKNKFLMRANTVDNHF

The target in the assay is Adenylate cyclase type 10 (Homo sapiens, UniProt Q96PN6).
For the compound `COc1cccc(Cc2cn(C)nc2-c2cc(Cl)nc(N)n2)c1`, the IC50 turned out to be 351 nM. `Cc1c(Cc2ncccn2)c(-c2cc(Cl)nc(N)n2)nn1C` returned an IC50 above 10000 nM. In the case of `Cn1cc(Cc2ccccc2)c(-c2cc(Cl)nc(N)n2)n1`, it took 989 nM to reach half-maximal inhibition (IC50).

Source of the values: ChEMBL document CHEMBL4837243, “Discovery of TDI-10229: A Potent and Orally Bioavailable Inhibitor of Soluble Adenylyl Cyclase (sAC, ADCY10)” (ACS Med Chem Lett, 2021).
